From patent US10221163B2 (priority 2015, dated 2019)

By UniProt entry, the sequences of proteins in these tests, tags left out.
UniProt P52699, whole entry, looked up, species assumed: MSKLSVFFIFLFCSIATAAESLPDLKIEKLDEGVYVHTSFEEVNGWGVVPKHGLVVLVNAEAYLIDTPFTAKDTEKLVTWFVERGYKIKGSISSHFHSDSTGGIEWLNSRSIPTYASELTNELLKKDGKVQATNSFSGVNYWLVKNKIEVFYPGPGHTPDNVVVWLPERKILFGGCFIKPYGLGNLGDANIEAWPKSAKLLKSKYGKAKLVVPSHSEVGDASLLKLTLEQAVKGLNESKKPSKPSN

Legend:
[1] = biological target: IMP-1 (Serratia marcescens, UniProt P52699); format: biochemical; settings: fluorescence assay, CCF2-FA substrate, 2 pM enzyme, 2 hours at 25° C.
[2] = biological target: VIM-1 (Pseudomonas aeruginosa (strain ATCC 15692 / DSM 22644 / CIP 104116 / JCM 14847 / LMG 12228 / 1C / PRS 101 / PAO1), UniProt A0A0F7KYQ8); assay: biochemical; settings: VIM-1 IC50, fluorescence assay, CCF2-FA substrate, 30 pM enzyme, 2 hours at 25° C.
[3] = tested on: Pseudomonas aeruginosa MB9798 vs MB9799; settings: ratio MITC95 PA_9798/MITC95 PA_9799

| SMILES | IC50 [1] [nM] | IC50 [2] [nM] | Efflux ratio [3] |
| --- | --- | --- | --- |
| Nc1nc2c(-c3ccc(S(=O)(=O)NC[C@@H]4CCCN4)c(S(N)(=O)=O)c3-c3nnn[nH]3)cccc2s1 [Example 125, (S)-2-((4-(2-aminobenzo[d]thiazol-4-yl)-2-sulfamoyl-3-(1H-tetrazol-5-yl)phenylsulfonamido)methyl)pyrrolidin-1-ium formate] | 0.286 |  |  |
| C[N+]1(C)CC[C@@H](NS(=O)(=O)c2ccc(-c3cccc4[nH]c(N)nc34)c(-c3nn[nH]n3)c2S(N)(=O)=O)C1.[Cl-] [Example 233, (R)-3-((4-(2-amino-1H-benzo[d]imidazol-4-yl)-2-sulfamoyl-3-(2H-tetrazol-5-yl)phenyl)sulfonamido)-1,1-dimethylpyrrolidin-1-ium chloride] |  | 0.0897 |  |
| Nc1nc2c(-c3ccc(S(=O)(=O)N[C@H]4C[C@H](N)C4)c(S(N)(=O)=O)c3-c3nnn[nH]3)cccc2s1 [Example 71, 4-(2-amino-1,3-benzothiazol-4-yl)-N^1-(trans-3-aminocyclobutyl)-3-(1H-tetrazol-5-yl)benzene-1,2-disulfonamide] | 0.355 | 0.224 | 1.00 |
| Nc1nc2c(-c3ccc(S(=O)(=O)NCC4(N)CCOC4)c(S(N)(=O)=O)c3-c3nnn[nH]3)cccc2s1 (stereo not shown) [Example 114, 3-((4-(2-aminobenzo[d]thiazol-4-yl)-2-sulfamoyl-3-(1H-tetrazol-5-yl)phenylsulfonamido)methyl)tetrahydrofuran-3-aminium formate] | 0.298 | 0.306 |  |
| Nc1nc2c(-c3ccc(S(=O)(=O)NC[C@H]4CCCN4)c(S(N)(=O)=O)c3-c3nnn[nH]3)cccc2s1 [Example 126, (R)-2-((4-(2-aminobenzo[d]thiazol-4-yl)-2-sulfamoyl-3-(1H-tetrazol-5-yl)phenylsulfonamido)methyl)pyrrolidin-1-ium formate] | 0.222 |  |  |
| Nc1nc2c(-c3ccc(S(=O)(=O)N[C@H]4C[C@H](N)C4)c(S(N)(=O)=O)c3-c3nnn[nH]3)cccc2s1 [Example 98, (1r,3r)-3-(4-(2-aminobenzo[d]thiazol-4-yl)-2-sulfamoyl-3-(1H-tetrazol-5-yl)phenylsulfonamido)cyclobutanaminium 2,2,2-trifluoroacetate] | 0.209 |  |  |
| Nc1nc2c(-c3ccc(S(=O)(=O)N4CC5C(N)C5C4)c(S(N)(=O)=O)c3-c3nnn[nH]3)cccc2s1 [Example 113, (1R,5S,6s)-3-((4-(2-aminobenzo[d]thiazol-4-yl)-2-sulfamoyl-3-(1H-tetrazol-5-yl)phenyl)sulfonyl)-3-azabicyclo[3.1.0]hexan-6-aminium 2,2,2-trifluoroacetate] | 1.12 |  |  |

Where a name gives a salt, the structure may show the parent alone.
